A selection: hits, their analogues and other compounds. The true share with any hit is near 3.7%.
ClpP mod = qHTS Assay for Activators of ClpP | ATP-dependent Clp protease proteolytic subunit (Bacillus subtilis (strain 168)), P80244 | purified B. subtilis ClpP, FRET peptide cleavage, 20 min | Potency, µM (doses to about 57.5 µM), for the others: at the highest dose activity change, negative = active | hit rate 1.9% among 340,000; active = well fitted falling curve with a large enough effect; inconclusive = small, poorly fitted or top-dose-only effect; inactive = no such curve, though single readings can be large or run the other way; also: potency is read from the fitted curve at half-maximal effect; the source files actives as falling curves though it sought activators and does not explain the sign; nearly all actives have a fitted effect of over 65% in size
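Buffer: 100 mM Tris/HCl pH8, 100 mM KCl, 0.05% low protease BSA, 2.5% glycerol, 0.01% Tween-20. ClpP 10 microg/mL final; 20 min RT; delta FRET normalized to ADEP and DMSO controls.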
IL2 activator = activates IL-2 in a cell-based reporter assay; IL-2 activation reporter assay, cell-based qHTS; stimulated with anti-CD3/CD4/CD28 beads; in transgenic mouse T cells; activation, % (series mostly up to about 46 µM); hit rate 0.065% among 360,000; in the data active = activation above about 50%; inconclusive = mostly about 30% to 49%; also: 0% is about no effect
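Readout: EGFP and DsRed signals by fluorescent plate cytometry. Unstimulated transgenic mouse T cells received compound 60 min before antibody-bead stimulation, then incubated 18 h at 37 degrees C.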
miR-21 reporter = raises the signal of a miR-21 reporter; HeLa miR-21 FLuc reporter, luciferase, 48 h; Potency, µM (top dose mostly 38.3 µM), for inactives: at the highest dose reporter change, positive = more light; AID 2288; 340,000 tested, under 10 active; active = well fitted rising curve with a large enough effect; inconclusive = small, poorly fitted or top-dose-only effect; inactive = no such curve, though single readings can be large or run the other way;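 note: % of control where 0% means no effect; miR-21 action dims this reporter so a rising signal means less miR-21 action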
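Compounds were titrated across several concentrations (up to approximately 40 uM) and incubated 48 hours with HeLa miR-21-FLuc reporter cells (miR-21 target sequence downstream of FLuc, endogenous miR-21). Readout was firefly luciferase luminescence after lytic detection reagent.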
Nrf2 activator = activators of Nrf2 (ARE) signaling; AREc32 ARE-luciferase reporter (MCF7-derived line), luminescence, 24 h; Potency, µM (titrated, usually from 46.1 µM), inactives show top-dose activation, most hits filed as activators; hit rate 0.31% among 410,000; also: potency is read from the fitted curve at half-maximal effect; % of control where 0% means no effect; nearly all actives have a fitted effect of over 65% in size
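ARE-driven firefly luciferase activity in AREc32 cells measured after a 24 hr compound exposure at 37 deg C, using Steady-Glo reagent and a 30 min room-temperature hold.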
A549 viability = counter-screen for Nrf2 inhibitors: cytotoxicity in A549 cells; hit rate 0.16% among 390,000; Potency, µM (top dose mostly 46 µM), for the others: top-dose activity change, negative = cytotoxicity, most hits filed as inhibitors; A549 ARE-Fluc cells, CellTiter-Fluor viability, 18-24 h; AID 504648; also: potency is read from the fitted curve at half-maximal effect; % is scaled to controls: 0 for no effect and ±100 for the full control effect
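A549 ARE_Fluc cells in 5% FBS OPTI-MEM were exposed to compounds in concentration-response for 18-24 h at 37 deg C. Viability was read by CellTiter-Fluor fluorescence (Ex 405/Em 525) after 30 min, before the luciferase read.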
Nrf2 inh = blocks Nrf2 signaling. AID 504444. Potency, µM (highest dose often 46 µM), for inactives: at the highest dose activity change, negative = inhibition, hits mostly inhibitors. hit rate 2.1% among 360,000. A549 ARE-Fluc reporter, luciferase luminescence, 18-24 h; also: potency is read from the fitted curve at half-maximal effect; % is scaled to controls: 0 for no effect and ±100 for the full control effect; nearly all actives have a fitted effect of over 60% in size
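Concentration-response testing used A549 ARE_Fluc cells at 5000 cells/well. Following an 18-24 h compound incubation, viability was read by fluorescence (Ex 405/Em 525) and luciferase output by luminescence.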
The depositor's hits bear a star. Unless noted, calls follow the shape of the dose curve; as a rule, active = well fitted curve in the direction sought with a large enough effect; inconclusive = small, poorly fitted or top-dose-only effect, or another doubt; inactive = no such curve, though single readings can be large; an effect the other way counts as inactive or inconclusive.

Results for CCN(CC)c1cc(C)c2cc(NC(=O)CNC(C)=O)ccc2n1 ?
ClpP mod: 16µM*; IL2 activator: -1; miR-21 reporter: -11%; Nrf2 activator: 0%; A549 viability: 1%; Nrf2 inh: 18%

Results for c1coc(-c2nc3cc4ccccc4cc3nc2-c2ccco2)c1 ?
A549 viability: -12%; Nrf2 inh: inconclusive

How did Clc1ccc(CO/N=C/c2c(-c3ccccc3)nc3n2CCS3)c(Cl)c1 do in these assays?
ClpP mod: 35µM*; IL2 activator: -3; miR-21 reporter: -3%; Nrf2 activator: 0%; A549 viability: 3%; Nrf2 inh: inconclusive

How did COc1ccc(OC(C)C(=O)NCc2nc(-c3ccc(Cl)cc3)no2)cc1 (centres undefined) do in these assays?
ClpP mod: -11%; miR-21 reporter: inconclusive; Nrf2 activator: 1%; A549 viability: 2%; Nrf2 inh: inconclusive

Results for Cc1ccc(-c2nnc(N3CCN(C(=O)COc4ccccc4)CC3)c3ccccc23)cc1 ?
ClpP mod: -1%; IL2 activator: -3; miR-21 reporter: 29%; Nrf2 activator: 3%; A549 viability: inconclusive; Nrf2 inh: 18µM*

Results for O=C(COc1ccc([N+](=O)[O-])cc1)N1CCN(c2nnc(-c3ccccc3)c3ccccc23)CC1 ?
ClpP mod: 1%; IL2 activator: 0; miR-21 reporter: -3%; Nrf2 activator: 0%; A549 viability: -10%; Nrf2 inh: 23µM*

What do the screens show for `Cc1cccn2c3c(c(=O)nc12)C(c1ccc(F)cc1)CC(=O)N3` (centres undefined)?
ClpP mod: -6%; miR-21 reporter: -7%; Nrf2 activator: 0%; A549 viability: 16%

Results for COc1ccc(NC(=O)/C(C#N)=C/c2c(C)nn(-c3ccc(F)cc3)c2Cl)cc1OC ?
ClpP mod: 0%; IL2 activator: -2; miR-21 reporter: -5%; Nrf2 activator: 16µM*; A549 viability: -18%; Nrf2 inh: inconclusive

Results for Cc1cccc(-c2nc(CSc3nncn4c3cc3sccc34)c(C)o2)c1 ?
ClpP mod: 1%; miR-21 reporter: -2%; Nrf2 activator: -1%; A549 viability: 8%; Nrf2 inh: 5%

What do the screens show for `Nc1c(Cl)cc(Cl)cc1C(=O)OCC(=O)NC1CC1`?
ClpP mod: 8.9µM*; IL2 activator: 1; miR-21 reporter: -10%; Nrf2 activator: 1%; A549 viability: -2%; Nrf2 inh: 3%

How did O=C(COC(=O)c1ccccc1C(=O)c1ccc(Cl)c([N+](=O)[O-])c1)NC1CCCCCC1 do in these assays?
ClpP mod: 1%; IL2 activator: -3; miR-21 reporter: 9%; Nrf2 activator: -2%; A549 viability: inconclusive; Nrf2 inh: 21µM*

Results for CC(C)N(C(=O)COC(=O)c1ccccc1C(=O)c1ccc(Cl)c([N+](=O)[O-])c1)C(C)C ?
ClpP mod: 1%; IL2 activator: -6; miR-21 reporter: 20%; Nrf2 activator: 2.2µM*; A549 viability: -28%; Nrf2 inh: inconclusive

How did Cn1c(N)c(C(=O)COC(=O)c2ccccc2C(=O)c2ccc(Cl)c([N+](=O)[O-])c2)c(=O)n(C)c1=O do in these assays?
ClpP mod: 3%; IL2 activator: -1; Nrf2 activator: inconclusive; A549 viability: -9%; Nrf2 inh: 14%

How did CN(CCC#N)C(=O)COC(=O)c1ccccc1C(=O)c1ccc(Cl)c([N+](=O)[O-])c1 do in these assays?
IL2 activator: -1; miR-21 reporter: inconclusive; Nrf2 activator: 16µM*; A549 viability: -17%; Nrf2 inh: -27%

How did CCC(CC)C(=O)Nc1ccc2nc(SCC(=O)N3CCOCC3)sc2c1 do in these assays?
ClpP mod: -2%; miR-21 reporter: 11%; Nrf2 activator: 4%; A549 viability: 0%; Nrf2 inh: -9%

How did Cc1nc2nc(CNC(=O)OC(C)(C)C)nn2c(C)c1CCC(=O)NCc1ccccc1Cl do in these assays?
ClpP mod: -2%; miR-21 reporter: -3%; Nrf2 activator: 1%; A549 viability: -5%; Nrf2 inh: 1%

Results for Clc1ccc(N2CCN(c3ccnc(Cl)n3)CC2)cc1 ?
ClpP mod: 0%; IL2 activator: -7; Nrf2 activator: 0%; A549 viability: -7%; Nrf2 inh: 16µM*

Results for COc1ccccc1CCNC(=O)c1ccc(NC(=O)N2CC(C)Sc3ccccc32)cc1 (centres undefined) ?
ClpP mod: -5%; miR-21 reporter: 18%; Nrf2 activator: 1%; A549 viability: 0%; Nrf2 inh: 21µM*

What do the screens show for `Cc1csc(N(C)C(=O)CSc2nnc(COc3cccc4ccccc34)o2)n1`?
ClpP mod: 0%; IL2 activator: 0; miR-21 reporter: 9%; Nrf2 activator: 0%; A549 viability: 0%; Nrf2 inh: 21µM*

What do the screens show for `COc1cccc(OCC(=O)NCCS(=O)(=O)N2CCN(c3ccccc3F)CC2)c1`?
ClpP mod: -3%; miR-21 reporter: 1%; Nrf2 activator: 3%; A549 viability: 0%

How did N/C(=N\OC(=O)/C=C/c1ccccc1Cl)c1cccnc1 do in these assays?
IL2 activator: -2; miR-21 reporter: -66%; Nrf2 activator: 16µM*; A549 viability: -1%; Nrf2 inh: inconclusive

How did N/C(=N\OC(=O)c1cccc2ccccc12)c1cccnc1 do in these assays?
ClpP mod: 4%; IL2 activator: -2; miR-21 reporter: -41%; Nrf2 activator: 2µM*; A549 viability: -1%; Nrf2 inh: inconclusive

Results for CCN1C(=O)/C(=C2/C=Cc3ccccc3N2CC)SC1=S ?
ClpP mod: 0%; IL2 activator: 0; miR-21 reporter: -21%; Nrf2 activator: inconclusive; A549 viability: inconclusive; Nrf2 inh: 6%

How did CCCN1C(=O)/C(=C2/C=Cc3ccccc3N2CC)SC1=S do in these assays?
ClpP mod: 2%; IL2 activator: 0; miR-21 reporter: 0%; Nrf2 activator: 8%; A549 viability: 15µM*; Nrf2 inh: -28%

How did CN1C(=O)/C(=C2/C=Cc3ccccc3N2CCCS(=O)(=O)O)SC1=S do in these assays?
ClpP mod: 22µM*; IL2 activator: -3; miR-21 reporter: -4%; Nrf2 activator: 8%; A549 viability: 21µM*; Nrf2 inh: -8%

How did CCN1/C(=C2\C(=O)N(C)C(=S)N2C)C=Cc2ccccc21 do in these assays?
IL2 activator: 1; miR-21 reporter: -2%; Nrf2 activator: 0%; A549 viability: inconclusive; Nrf2 inh: inconclusive

Source: PubChem (National Center for Advancing Translational Sciences (NCATS))
